{"sequences": {"note": "Sequences of proteins named here, by UniProt entry; tags and fusion partners are left off. A change or cut given only in a name is not applied to a line headed by its entry. Residues count along the entry.", "UniProt P21555, whole entry": "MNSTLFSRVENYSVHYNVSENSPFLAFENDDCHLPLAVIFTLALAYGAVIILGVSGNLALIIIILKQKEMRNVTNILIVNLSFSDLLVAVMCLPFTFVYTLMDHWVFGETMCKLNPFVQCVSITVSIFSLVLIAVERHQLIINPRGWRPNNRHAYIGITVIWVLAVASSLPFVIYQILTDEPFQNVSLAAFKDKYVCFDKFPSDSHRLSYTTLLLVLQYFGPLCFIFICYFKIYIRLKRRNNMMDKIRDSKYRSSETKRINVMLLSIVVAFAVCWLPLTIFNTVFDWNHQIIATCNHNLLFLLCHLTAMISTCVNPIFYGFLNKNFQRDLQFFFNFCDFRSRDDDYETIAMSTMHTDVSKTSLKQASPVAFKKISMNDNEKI", "UniProt Q63447": "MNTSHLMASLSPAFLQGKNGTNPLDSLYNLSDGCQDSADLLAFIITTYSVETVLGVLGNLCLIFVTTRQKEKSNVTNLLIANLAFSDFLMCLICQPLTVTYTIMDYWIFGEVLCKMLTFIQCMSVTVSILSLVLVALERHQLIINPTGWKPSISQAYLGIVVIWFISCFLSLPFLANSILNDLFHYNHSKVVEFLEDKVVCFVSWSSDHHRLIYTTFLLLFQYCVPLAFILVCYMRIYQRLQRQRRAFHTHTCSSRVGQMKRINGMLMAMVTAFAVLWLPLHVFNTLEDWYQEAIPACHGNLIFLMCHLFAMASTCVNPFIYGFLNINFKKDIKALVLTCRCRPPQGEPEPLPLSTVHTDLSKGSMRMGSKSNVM", "UniProt Q9ERC0, 1-381": "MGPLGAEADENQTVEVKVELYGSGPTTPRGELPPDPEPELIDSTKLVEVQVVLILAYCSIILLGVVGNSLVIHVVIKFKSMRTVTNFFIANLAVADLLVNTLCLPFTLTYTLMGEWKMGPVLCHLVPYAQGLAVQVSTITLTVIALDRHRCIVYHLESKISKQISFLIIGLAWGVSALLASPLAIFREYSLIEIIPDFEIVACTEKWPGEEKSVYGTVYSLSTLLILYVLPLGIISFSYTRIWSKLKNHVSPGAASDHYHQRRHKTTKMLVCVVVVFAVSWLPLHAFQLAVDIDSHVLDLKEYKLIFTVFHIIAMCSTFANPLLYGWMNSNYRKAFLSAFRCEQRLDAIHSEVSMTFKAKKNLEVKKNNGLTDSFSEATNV"}, "source": "patent US20060189530A1", "about": "(Bayer Corporation, priority 1996, published 2006)", "key": {"[1]": {"molecular_target": "Rat Y1 (clone) (Rattus norvegicus, UniProt P21555)", "assay": "[125I]PYY binding assay for rat Y1 receptor", "conditions": "read-out: IC50, Rat Y1 (clone); 50 pM [125I]PYY"}, "[2]": {"molecular_target": "Rat Y4/PP1 (clone) (Rattus norvegicus, UniProt Q63447)", "assay": "rat [125I]PP binding assay for rat Y4/PP1 receptor", "conditions": "read-out: IC50, Rat Y4/PP1 (clone); 50 pM rat [125I]PP"}, "[3]": {"molecular_target": "T1, Rat Y5 (Y861) (Rattus norvegicus, UniProt Q63634)", "T1 construct": "expressed in transfected cells", "T1 sequence (Q63634 1-445)": "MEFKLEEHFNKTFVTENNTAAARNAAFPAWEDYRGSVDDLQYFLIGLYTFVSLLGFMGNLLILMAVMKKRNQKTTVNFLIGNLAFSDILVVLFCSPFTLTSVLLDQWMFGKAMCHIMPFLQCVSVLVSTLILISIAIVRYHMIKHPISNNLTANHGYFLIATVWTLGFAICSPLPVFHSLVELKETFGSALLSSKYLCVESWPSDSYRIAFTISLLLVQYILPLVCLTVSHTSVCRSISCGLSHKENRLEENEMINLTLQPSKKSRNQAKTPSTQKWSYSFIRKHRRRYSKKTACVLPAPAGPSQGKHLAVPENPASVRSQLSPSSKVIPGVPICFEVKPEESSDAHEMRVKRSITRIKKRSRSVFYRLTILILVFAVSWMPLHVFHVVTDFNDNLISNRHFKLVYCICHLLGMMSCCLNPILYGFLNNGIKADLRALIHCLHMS", "assay": "[125I]PYY binding, rat Y5 (Y861), IC50 of Table 3", "conditions": "read-out: IC50, Rat Y5 (Y861)", "description": "(§1) All other peptides were purchased from either Peninsula (Belmont, Calif.) or Bachem (Torrance, Calif.)."}, "[4]": {"molecular_target": "T2, rat NPY Y5 receptor (Y555 clone) (Rattus norvegicus, UniProt Q63634)", "T2 construct": "expressed in transfected cells; host or cells: COS-7 (transient), membranes", "T2 sequence (Q63634 1-445)": "T1 sequence (Q63634 1-445)", "assay": "[125I]PYY competition binding, rat Y5 Y555 clone transiently expressed in COS-7 membranes", "conditions": "read-out: NPY Y5 binding affinity, RAT Y555 Clone (IC50 values per footnote), transient COS-7 membranes, ± SEM", "description": "(§2) The media was removed from each flask of transfected cells, and the cells were washed twice with 20 ml ice-cold phosphate buffered saline.\nas §1"}, "[5]": {"molecular_target": "Rat Y2 (clone) (Rattus norvegicus, UniProt Q9ERC0)", "assay": "[125I]PYY binding assay for rat Y2 receptor", "conditions": "read-out: IC50, Rat Y2 (clone); 25 pM [125I]PYY"}, "[6]": {"molecular_target": "T3, human NPY Y5 receptor (Homo sapiens, UniProt Q15761)", "T3 construct": "containing the full length open reading frame encoding the receptor; expressed in transfected cells", "T3 sequence (Q15761 1-445)": "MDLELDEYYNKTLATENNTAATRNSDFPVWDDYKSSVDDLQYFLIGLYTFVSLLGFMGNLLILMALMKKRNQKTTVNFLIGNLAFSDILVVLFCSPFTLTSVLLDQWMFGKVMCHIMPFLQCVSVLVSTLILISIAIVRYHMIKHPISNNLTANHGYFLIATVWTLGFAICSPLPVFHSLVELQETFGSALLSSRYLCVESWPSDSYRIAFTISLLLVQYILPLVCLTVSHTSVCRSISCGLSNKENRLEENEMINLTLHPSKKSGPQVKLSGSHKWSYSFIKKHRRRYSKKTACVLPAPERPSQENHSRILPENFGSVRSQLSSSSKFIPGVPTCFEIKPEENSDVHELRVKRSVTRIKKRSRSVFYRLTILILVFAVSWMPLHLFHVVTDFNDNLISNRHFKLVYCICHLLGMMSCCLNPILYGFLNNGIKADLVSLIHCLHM", "assay": "[125I]PYY competition binding, human Y5 clone transiently expressed in COS-7 membranes", "conditions": "read-out: NPY Y5 binding affinity Ki, HUMAN Clone, transient COS-7 membranes, ± SEM", "description": "as §2, §1"}, "[7]": {"molecular_target": "T4, rat NPY Y5 receptor (Y861 clone) (Rattus norvegicus, UniProt Q63634)", "T4 sequence (Q63634 1-445)": "T1 sequence (Q63634 1-445)", "assay": "[125I]PYY competition binding, stably expressed rat Y5 (293S.Y861.2)", "parameters": "expressed in transfected cells", "conditions": "read-out: Ki, 293S.Y861.2, Average ± SEM", "description": "as §2, §1"}, "[8]": {"molecular_target": "T3, human NPY Y5 receptor", "assay": "[125I]PYY competition binding, stably expressed human Y5 (293.hY5.sb.8)", "conditions": "read-out: Ki, 293.hY5.sb.8, Average ± SEM", "description": "as §2, §1"}, "[9]": {"molecular_target": "T5, human Y5 receptor (Homo sapiens, UniProt Q15761)", "T5 construct": "containing the full length open reading frame encoding the receptor; expressed in transfected cells", "T5 sequence (Q15761 1-445)": "T3 sequence (Q15761 1-445)", "assay": "Forskolin-stimulated adenylate cyclase (cAMP), human Y5 stable cells 293.hY5.sb.8", "assay_type": "cell-based", "conditions": "read-out: EC50, 293.hY5.sb.8"}, "[10]": {"molecular_target": "T4, rat NPY Y5 receptor (Y861 clone)", "assay": "[125I]PYY competition binding, rat Y5 Y861 clone transiently expressed in COS-7 membranes", "parameters": "expressed in transfected cells; host or cells: COS-7 (transient), membranes", "conditions": "read-out: NPY Y5 binding affinity Ki, RAT Y861 Clone, transient COS-7 membranes, ± SEM", "description": "as §2, §1"}, "[11]": {"molecular_target": "T6, rat NPY Y5 receptor (6B clone) (Rattus norvegicus, UniProt Q63634, L61P)", "T6 construct": "expressed in transfected cells; host or cells: COS-7 (transient), membranes", "T6 sequence (Q63634 1-445 L61P)": "T1 sequence (Q63634 1-445) with L61P", "assay": "[125I]PYY competition binding, rat Y5 6B clone transiently expressed in COS-7 membranes", "conditions": "read-out: NPY Y5 binding affinity Ki, RAT 6B Clone, transient COS-7 membranes, ± SEM", "description": "as §2, §1"}}, "note": "Where a chain is given by its changes, count along the chain named."}
{"substance": "(2-36)NPY [r/h(2-36)NPY]", "values": [{"measurement": "IC50", "setting": "[1]", "result": 47, "unit": "nM"}, {"measurement": "IC50", "setting": "[2]", "result": "> 1000", "unit": "nM"}]}
{"substance": "(3-36)NPY [p(3-36)NPY]", "values": [{"measurement": "IC50", "setting": "[3]", "result": 2.2, "unit": "nM"}, {"measurement": "IC50", "setting": "[4]", "result": "3.6 ± 0.4", "unit": "nM"}, {"measurement": "IC50", "setting": "[5]", "result": 0.67, "unit": "nM"}, {"measurement": "Ki", "setting": "[6]", "result": "10.4 ± 2", "unit": "nM"}, {"measurement": "IC50", "setting": "[1]", "result": 45, "unit": "nM"}, {"measurement": "IC50", "setting": "[2]", "result": "> 1000", "unit": "nM"}]}
{"substance": "(3-36)NPY [r/h(3-36)NPY]", "values": [{"measurement": "Ki", "setting": "[7]", "result": "1.4 ± 0.4", "unit": "nM"}, {"measurement": "Ki", "setting": "[8]", "result": "3.5 ± 0.4", "unit": "nM"}, {"measurement": "Ki", "setting": "[6]", "result": "3.8 ± 0.48", "unit": "nM"}, {"measurement": "EC50", "setting": "[9]", "result": 6, "unit": "nM"}, {"measurement": "Ki", "setting": "[10]", "result": 2.1, "unit": "nM"}, {"measurement": "Ki", "setting": "[11]", "result": 0.49, "unit": "nM"}]}
{"substance": "(3-36)PYY [r(3-36)PYY]", "values": [{"measurement": "Ki", "setting": "[8]", "result": "4.5 ± 0.7", "unit": "nM"}, {"measurement": "Ki", "setting": "[6]", "result": "10 ± 3.4", "unit": "nM"}]}
{"substance": "(10-36)NPY [r/h(10-36)NPY]", "values": [{"measurement": "IC50", "setting": "[3]", "result": 34, "unit": "nM"}, {"measurement": "Ki", "setting": "[7]", "result": "15 ± 4.7", "unit": "nM"}, {"measurement": "IC50", "setting": "[4]", "result": 35, "unit": "nM"}, {"measurement": "Ki", "setting": "[8]", "result": "14 ± 2.7", "unit": "nM"}, {"measurement": "IC50", "setting": "[5]", "result": 0.42, "unit": "nM"}, {"measurement": "Ki", "setting": "[6]", "result": 110, "unit": "nM"}, {"measurement": "IC50", "setting": "[1]", "result": 148, "unit": "nM"}, {"measurement": "Ki", "setting": "[10]", "result": "34 ± 2.8", "unit": "nM"}, {"measurement": "Ki", "setting": "[11]", "result": 4.9, "unit": "nM"}, {"measurement": "IC50", "setting": "[2]", "result": "> 1000", "unit": "nM"}]}
{"substance": "(18-36)NPY [p(18-36)NPY]", "values": [{"measurement": "Ki", "setting": "[7]", "result": "61 ± 13", "unit": "nM"}, {"measurement": "Ki", "setting": "[11]", "result": "194 ± 88", "unit": "nM"}, {"measurement": "IC50", "setting": "[2]", "result": 159, "unit": "nM"}]}
{"substance": "(20-36)NPY [r/h(20-36)NPY]", "values": [{"measurement": "Ki", "setting": "[7]", "result": "108 ± 16", "unit": "nM"}, {"measurement": "Ki", "setting": "[8]", "result": "429 ± 133", "unit": "nM"}, {"measurement": "Ki", "setting": "[6]", "result": "> 1000", "unit": "nM"}, {"measurement": "Ki", "setting": "[10]", "result": 587, "unit": "nM"}, {"measurement": "Ki", "setting": "[11]", "result": "330 ± 31", "unit": "nM"}]}
{"substance": "(22-36)NPY [r/h(22-36)NPY]", "values": [{"measurement": "Ki", "setting": "[7]", "result": "> 930", "unit": "nM"}, {"measurement": "Ki", "setting": "[8]", "result": "> 900", "unit": "nM"}, {"measurement": "IC50", "setting": "[5]", "result": 0.89, "unit": "nM"}, {"measurement": "Ki", "setting": "[6]", "result": "> 1000", "unit": "nM"}, {"measurement": "Ki", "setting": "[10]", "result": "> 1000", "unit": "nM"}, {"measurement": "Ki", "setting": "[11]", "result": "> 1000", "unit": "nM"}]}
{"substance": "(26-36)NPY [r/h(26-36)NPY]", "values": [{"measurement": "Ki", "setting": "[7]", "result": "> 930", "unit": "nM"}, {"measurement": "Ki", "setting": "[8]", "result": "> 900", "unit": "nM"}, {"measurement": "IC50", "setting": "[5]", "result": 84, "unit": "nM"}, {"measurement": "Ki", "setting": "[6]", "result": "> 1000", "unit": "nM"}, {"measurement": "Ki", "setting": "[10]", "result": "> 1000", "unit": "nM"}, {"measurement": "Ki", "setting": "[11]", "result": "> 1000", "unit": "nM"}]}
{"substance": "(Leu^31Pro^34)(3-36)NPY [(LP)(3-36)NPY]", "values": [{"measurement": "Ki", "setting": "[8]", "result": "3.1 ± 0.6", "unit": "nM"}, {"measurement": "EC50", "setting": "[9]", "result": "23 ± 11", "unit": "nM"}]}
{"substance": "(Leu^31Pro^34)PYY [h(LP)PYY]", "values": [{"measurement": "Ki", "setting": "[8]", "result": "1.3 ± 0.1", "unit": "nM"}]}
{"substance": "Neuropeptide Y [r/hNPY]", "values": [{"measurement": "IC50", "setting": "[2]", "result": "> 1000", "unit": "nM"}]}
